Data reported in patent US7049321B2, “Methods and pharmaceutical compositions for treatment of central and peripheral nervous system disorders and compounds useful therefor” (Israel Institute for Biological Research, priority 2002, dated 2006).

Protein sequences, listed by entry. Tags and fused reporters are not part of them. Lines headed by an entry give the natural chain unless they say otherwise; changes in a name come on top.
UniProt P08482: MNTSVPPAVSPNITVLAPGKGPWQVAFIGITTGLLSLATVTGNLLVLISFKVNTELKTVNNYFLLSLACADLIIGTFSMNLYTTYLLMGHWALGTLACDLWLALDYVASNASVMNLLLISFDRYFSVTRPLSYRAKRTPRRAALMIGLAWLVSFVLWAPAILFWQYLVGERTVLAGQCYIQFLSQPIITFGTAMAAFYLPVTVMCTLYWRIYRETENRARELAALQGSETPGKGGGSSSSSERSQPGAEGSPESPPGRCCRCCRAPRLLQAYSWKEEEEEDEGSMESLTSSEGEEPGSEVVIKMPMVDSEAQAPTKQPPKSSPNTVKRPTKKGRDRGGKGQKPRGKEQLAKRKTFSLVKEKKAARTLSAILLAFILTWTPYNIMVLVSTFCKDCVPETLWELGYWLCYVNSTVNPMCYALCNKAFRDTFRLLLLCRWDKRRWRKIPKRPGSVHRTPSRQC

How the values were obtained:
[1] = tested on: Rat pheochromocytoma cells transfected with M1 mAChR; assay: Neurite outgrowth response; format: cell-based; details: read-out: Maximal response, percent of cells with neurites
Protocol: Rat pheochromocytoma cells transfected with M1 mAChR cells were grown as described in Gurwitz et al, (NeuroReport 6, 485,1995). For determination of neurite outgrowth, cells plated in six-well plates were used 3–5 days after-plating. Growth factors were added 1 day after plating and muscarinic agonists were added for the last 24 hrs.
Cells were observed under an inverted microscope. The percent of cells with neurite longer than cell diameter were scored in three random fields of several hundred cells from each well. Results were expressed as a percent of cells with neurites. Treatments were performed in triplicate cells. Both NGF (50 ng/ml) and EGF (100 ng/ml) were added 1 day after plating. Muscarinic agonists were added 24 hours before scoring.

[2] = tested on: Rat pheochromocytoma cells transfected with M1 mAChR; format: cell-based; details: β-A25-35 (1 μM), 24 hrs, serum-deprived
Protocol: Confluent rat pheochromocytoma cells transfected with the M1 mAChR cultures were detached with trypsin, washed and plated in 24-well, 6-well, 60-mm or 100-mm plates that were precoated with rat tail collagen (Sigma, Israel). Several experiments were performed in serum-free medium. For 3-(4,5-dimethylthiazol-2-yl)-2,5-diphenyl-tetrazolium bromide (MTT) assay, cells (1.5×10^4) were plated in 96-well collagen-precoated plates, in serum-free medium, with or without various drugs for 24 hours. For differentiation, cells were grown in the presence of 1% FCS and 1% HS, with addition of 50 ng/ml NGF for 7 days, to cause full differentiation. […] After 7 days, cells were washed and the medium was either replaced to serum-free, or cells were detached and replated in serum-free medium. Cells in serum-free medium were treated either with Aβ peptides that were previously “aged” or with H2O2. Tested compounds were added together with the insults for the indicated time, unless otherwise stated.
Cells were plated in 96-well plates in 100 μl medium. […] Plates were read using ELISA reader at a wavelength of 570 nm.
The MTT assay measures primary early changes within the cells, reflecting the integrity of the electron transport chain and provides a readout of cellular redox activity. […]

[3] = tested on: cells transfected with M1 mAChR; assay: Protection from H2O2-induced toxicity; format: cell-based, rat
Protocol: (§1) Several experiments were performed in serum-free medium.
Cells were plated in 96-well plates in 100 μl medium. […] Plates were incubated for 2 hrs at 37° C. followed by hydrocholoric acid-isopropanol addition (100 μl of 0.04N HCl/isopropanol). Plates were read using ELISA reader at a wavelength of 570 nm.

[4] = tested on: cells transfected with M1 mAChR; assay: Apoptosis (DAPI, TUNEL, FACS) after starvation, Aβ or H2O2; format: cell-based, rat
Protocol: as §1
Cells were grown and treated on glass coverslips.
Apoptotic cells were identified as the pre-G1 phase.

M1 mAChR = biological target: T1, M1 mAChR (Rattus norvegicus, UniProt P08482); assay: α-APPs secretion in cell cultures stably transfected with the M1 mAChR; format: cell-based
T1 construct: expressed in transfected cells; elsewhere rat pheochromocytoma cells
Protocol: Cells were plated in 6 well culture plates and used at the age of 3–5 days after plating. […] Cells exposed to medium alone are referred as controls.
Cell supernatants were collected into Eppendorff tubes containing a cocktail of protease inhibitors (5 units/ml aprotinin, […], […] and 10^−4M Phenylmethylsulfonylfluoride (PMSF, a protease inhibitor); Sigma, USA). The collected media were concentrated with Centricon tubes (Amicon, Beverly, Mass., USA) and kept frozen for α-APPs secretion determination. Equal amounts of protein (50–100 μg) were loaded and separated on 10% sodium dodecyl sulfate-polyacrylamide gel electrophoresis (SDS-PAGE). Followed by western blotting onto nitrocellulose membrane, blocked by fat-free milk, and probed for 24 hours at 4° C., with anti-Alzheimer's precursor protein, A4 monoclonal antibody 22C11 (0.25 μg/ml; Boehringer Mannheim, Germany). The nitrocellulose membranes were washed and incubated for 2 hours at room temperature with peroxidase-linked goat anti-mouse IgG antibodies (Jackson Immunoresearch, USA), followed by extensive washout and staining with enhanced chemiluminescence detection system (Amersham). Quantitative evaluation of the immunoreactive bands, on the exposed films, was performed by video-imaging densitometry (Gel-aid software; Galai Co., Israel). APPs levels were expressed as x-fold increase over basal levels.

Compound: C[N+](C)(C)CCOC(N)=O [carbachol, reference compound]
- Emax [1]: 80%
- Cell death induced by β-A25-35 [2]: significantly attenuated
- Protection from H2O2-induced toxicity [3]: protect the cells
- Apoptotic death during starvation (FACS) [4]: protected cells from apoptotic death
- Apoptotic population after β-amyloid (FACS) ([4]; β-Amyloid 25–35 or 1–42): reduced the apoptotic population significantly

Compound: deprenyl [reference compound]
- α-APPs secretion, comparison in words (M1 mAChR): not effective
